Measurements from publication PMC8565993 (International journal for parasitology, 2020).

Columns and labels:
[1] = biological target: Human Src (Homo sapiens, UniProt P12931); test: Human Src kinase inhibition; assay type: biochemical; conditions: read-out: Human Src IC50
[2] = biological target: T1, CpCDPK1 (Cryptosporidium parvum, UniProt A3FQ16); assay type: biochemical; conditions: read-out: CpCDPK1 IC50
T1 sequence (A3FQ16 1-538): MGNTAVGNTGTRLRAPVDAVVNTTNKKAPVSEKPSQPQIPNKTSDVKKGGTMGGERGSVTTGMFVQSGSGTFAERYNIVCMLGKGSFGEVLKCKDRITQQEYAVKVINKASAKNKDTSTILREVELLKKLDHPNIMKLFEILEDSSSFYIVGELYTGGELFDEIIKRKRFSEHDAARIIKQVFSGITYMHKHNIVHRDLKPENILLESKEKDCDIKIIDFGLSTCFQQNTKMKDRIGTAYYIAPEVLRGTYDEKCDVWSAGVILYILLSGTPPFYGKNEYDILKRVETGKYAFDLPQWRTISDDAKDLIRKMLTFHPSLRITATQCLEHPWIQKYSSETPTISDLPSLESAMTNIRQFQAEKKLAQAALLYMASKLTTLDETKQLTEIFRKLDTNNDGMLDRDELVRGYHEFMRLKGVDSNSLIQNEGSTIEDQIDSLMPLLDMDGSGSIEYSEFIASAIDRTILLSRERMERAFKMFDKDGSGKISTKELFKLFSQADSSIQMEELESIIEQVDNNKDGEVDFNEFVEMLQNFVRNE

| Structure (SMILES) | IC50 [1] | IC50 [2] |
| --- | --- | --- |
| CCOc1ccc2cc(-c3nn(C(C)(C)C)c(N)c3C(N)=O)cnc2c1 [BKI-1517] | > 30000 nM | – |
| CCOc1ccc2cc(-c3nn(CC4CCN(C)CC4)c4ncnc(N)c34)ccc2c1 [BKI-1294] | – | 1 nM |
